The text below walks through data of ChEMBL document CHEMBL5614382, “Discovery of a new 1-(phenylsulfonyl)-1H-indole derivative targeting the EphA2 receptor with antiproliferative activity on U251 glioblastoma cell line” (Eur J Med Chem, 2024).

In the assay the target is T1, Ephrin type-B receptor 2 (Mus musculus, UniProt P54763).
T1 sequence (P54763 whole entry): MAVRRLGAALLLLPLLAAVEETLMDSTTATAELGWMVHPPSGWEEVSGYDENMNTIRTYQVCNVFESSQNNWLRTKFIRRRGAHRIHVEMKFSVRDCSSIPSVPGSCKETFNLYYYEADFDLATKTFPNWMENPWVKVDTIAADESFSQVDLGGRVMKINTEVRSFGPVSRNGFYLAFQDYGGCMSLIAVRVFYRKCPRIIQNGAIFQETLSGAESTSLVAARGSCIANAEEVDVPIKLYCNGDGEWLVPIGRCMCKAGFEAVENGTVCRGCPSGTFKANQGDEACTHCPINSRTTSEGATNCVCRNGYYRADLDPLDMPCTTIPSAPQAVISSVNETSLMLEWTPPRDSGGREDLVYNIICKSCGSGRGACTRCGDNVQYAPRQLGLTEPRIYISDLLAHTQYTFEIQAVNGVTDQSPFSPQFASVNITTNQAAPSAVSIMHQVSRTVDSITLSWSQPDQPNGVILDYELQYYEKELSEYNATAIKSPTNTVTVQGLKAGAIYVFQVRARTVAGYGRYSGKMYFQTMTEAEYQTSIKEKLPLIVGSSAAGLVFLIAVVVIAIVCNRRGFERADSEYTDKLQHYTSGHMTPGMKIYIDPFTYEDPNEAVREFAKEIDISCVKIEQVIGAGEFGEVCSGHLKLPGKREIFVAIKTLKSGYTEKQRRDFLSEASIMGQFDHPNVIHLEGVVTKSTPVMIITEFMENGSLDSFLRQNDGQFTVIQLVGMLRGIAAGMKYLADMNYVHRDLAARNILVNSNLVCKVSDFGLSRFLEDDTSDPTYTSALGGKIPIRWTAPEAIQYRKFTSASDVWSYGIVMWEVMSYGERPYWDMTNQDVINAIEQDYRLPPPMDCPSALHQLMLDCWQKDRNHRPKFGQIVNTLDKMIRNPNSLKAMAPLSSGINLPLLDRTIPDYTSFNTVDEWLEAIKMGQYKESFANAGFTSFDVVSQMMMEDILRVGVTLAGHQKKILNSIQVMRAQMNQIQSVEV
The assay is described as follows: Displacement of biotinylated Fc-tagged ephrin-B1 from recombinant N/C-terminal 6-his tagged mouse EphB2 (Val27 to Lys548 residues) preincubated for 1 hr followed by ephrin-B1-Fc addition and measured after 4 to 5 hrs by ELISA assay. (ELISA stands for enzyme-linked immunosorbent assay.)

Structures are written as SMILES.

The IC50 is the concentration that gives 50% inhibition. Consider `C[C@H](CCC(=O)N[C@H](CC(=O)O)Cc1c[nH]c2ccccc12)[C@H]1CC[C@H]2[C@@H]3CC=C4C[C@@H](O)CC[C@]4(C)[C@H]3CC[C@]12C`, for which the IC50 is 16 µM.
